The numbers were not newly measured in patent US20140378500A1, “METHODS FOR PREDICTING TUMOR REPONSE TO TARGETED THERAPIES” (20/20 Gene Systems, Inc., priority 2012, published 2014), which cites them from elsewhere.

This data set has as its system HER2 positive breast cancer. The conditions noted are these: at the onset of treatment or within a year of treatment; cited from earlier work.

As for Trastuzumab [HERCEPTIN], the “proportion of HER2 over-expressing breast cancers refractory, not responding or acquiring resistance” value is given as no less than 30%.
